Results: PubChem BioAssay (NCI)
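How tested: cells in 96-well plates exposed to compound for 48 hours at five concentrations. Abbreviation: GI50, concentration required for 50% inhibition of growth. The concentration for full growth arrest is given as TGI.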

Experiments:
Assay in all cases: NCI-60 cell line screen, 48 h
HOP-62 NSCLC = tested on: HOP-62 NSCLC
MCF7 breast = tested on: MCF7 breast
SK-OV-3 ovarian = tested on: SK-OV-3 ovarian
KM12 colon = tested on: KM12 colon
TK-10 renal = tested on: TK-10 renal
LOX IMVI melanoma = tested on: LOX IMVI melanoma
COLO 205 colon = tested on: COLO 205 colon
SK-MEL-2 melanoma = tested on: SK-MEL-2 melanoma
SNB-19 CNS = tested on: SNB-19 CNS
SW-620 colon = tested on: SW-620 colon
SF-268 CNS = tested on: SF-268 CNS
MDA-MB-435 = tested on: MDA-MB-435
RPMI-8226 leukemia = tested on: RPMI-8226 leukemia
UACC-257 melanoma = tested on: UACC-257 melanoma
OVCAR-3 ovarian = tested on: OVCAR-3 ovarian
M14 melanoma = tested on: M14 melanoma
NCI-H23 lung = tested on: NCI-H23 lung
OVCAR-5 ovarian = tested on: OVCAR-5 ovarian
MALME-3M melanoma = tested on: MALME-3M melanoma
A549 NSCLC = tested on: A549 NSCLC
PC-3 prostate = tested on: PC-3 prostate
HCT-116 colon = tested on: HCT-116 colon
NCI/ADR-RES ovarian = tested on: NCI/ADR-RES ovarian
NCI-H460 lung = tested on: NCI-H460 lung
A498 renal = tested on: A498 renal
NCI-H226 lung = tested on: NCI-H226 lung
UACC-62 melanoma = tested on: UACC-62 melanoma
K-562 leukemia = tested on: K-562 leukemia
SNB-75 CNS = tested on: SNB-75 CNS
SF-295 CNS = tested on: SF-295 CNS
786-0 renal = tested on: 786-0 renal
DU-145 prostate = tested on: DU-145 prostate
T-47D breast = tested on: T-47D breast
HCT-15 colon = tested on: HCT-15 colon
HT29 colon = tested on: HT29 colon
SN12C renal = tested on: SN12C renal
MDA-MB-231 breast = tested on: MDA-MB-231 breast
NCI-H322M lung = tested on: NCI-H322M lung
IGROV1 ovarian = tested on: IGROV1 ovarian
EKVX NSCLC = tested on: EKVX NSCLC
HOP-92 NSCLC = tested on: HOP-92 NSCLC
NCI-H522 lung = tested on: NCI-H522 lung
SR leukemia = tested on: SR leukemia
RXF 393 renal = tested on: RXF 393 renal
BT-549 breast = tested on: BT-549 breast
UO-31 renal = tested on: UO-31 renal
MOLT-4 leukemia = tested on: MOLT-4 leukemia
SK-MEL-28 melanoma = tested on: SK-MEL-28 melanoma
U251 CNS = tested on: U251 CNS
CAKI-1 renal = tested on: CAKI-1 renal
SK-MEL-5 melanoma = tested on: SK-MEL-5 melanoma
OVCAR-8 ovarian = tested on: OVCAR-8 ovarian
ACHN renal = tested on: ACHN renal
CCRF-CEM leukemia = tested on: CCRF-CEM leukemia
OVCAR-4 ovarian = tested on: OVCAR-4 ovarian
HS 578T breast = tested on: HS 578T breast
HCC-2998 colon = tested on: HCC-2998 colon
SF-539 CNS = tested on: SF-539 CNS
HL-60(TB) leukemia = tested on: HL-60(TB) leukemia

CN(C(=O)Cc1cc(Cl)c(Cl)cc1N)C1CCCC[C@@H]1N1CCCC1 (stereo not given in full) gave a TGI (HOP-62 NSCLC) of 43.3 µM, a TGI (MCF7 breast) of 31.2 µM and a TGI (SK-OV-3 ovarian) of over 100 µM. It also gave a TGI (KM12 colon) of 46.1 µM, a TGI (TK-10 renal) of 51.7 µM and a TGI (LOX IMVI melanoma) of 36 µM. For the same compound, the TGI (COLO 205 colon) was 33 µM, the TGI (SK-MEL-2 melanoma) was 40.7 µM and the TGI (SNB-19 CNS) was 47.9 µM. It also gave a TGI (SW-620 colon) of 44.3 µM, a TGI (SF-268 CNS) of 58.4 µM and a TGI (MDA-MB-435) of 32.1 µM. For the same compound, the TGI (RPMI-8226 leukemia) was 40.1 µM, the TGI (UACC-257 melanoma) was 34.2 µM and the TGI (OVCAR-3 ovarian) was 43.2 µM. It also gave a TGI (M14 melanoma) of 31 µM, a TGI (NCI-H23 lung) of 77.5 µM and a TGI (OVCAR-5 ovarian) of over 100 µM. The TGI (MALME-3M melanoma) was 32.2 µM, the TGI (A549 NSCLC) was over 100 µM and the TGI (PC-3 prostate) was 86.3 µM. The TGI (HCT-116 colon) was 28.4 µM, the TGI (NCI/ADR-RES ovarian) was over 100 µM and the TGI (NCI-H460 lung) was 34.9 µM. The TGI (A498 renal) was 30.2 µM, the TGI (NCI-H226 lung) was 22.8 µM and the TGI (UACC-62 melanoma) was 32.8 µM. It also gave a TGI (K-562 leukemia) of 36.2 µM, a TGI (SNB-75 CNS) of 56.2 µM and a TGI (SF-295 CNS) of 62 µM. The TGI (786-0 renal) was 29.2 µM, the TGI (DU-145 prostate) was over 100 µM and the TGI (T-47D breast) was 36.5 µM. For the same compound, the TGI (HCT-15 colon) was 42.2 µM, the TGI (HT29 colon) was 36.4 µM and the TGI (SN12C renal) was over 100 µM. The TGI (MDA-MB-231 breast) was 41.7 µM, the TGI (NCI-H322M lung) was 68.1 µM and the TGI (IGROV1 ovarian) was over 100 µM. It also gave a TGI (EKVX NSCLC) of over 100 µM, a TGI (HOP-92 NSCLC) of over 100 µM and a TGI (NCI-H522 lung) of 31 µM. It also gave a TGI (SR leukemia) of 37.2 µM, a TGI (RXF 393 renal) of 33.1 µM and a TGI (BT-549 breast) of over 100 µM. The TGI (UO-31 renal) was 26.8 µM, the TGI (MOLT-4 leukemia) was 44.1 µM and the TGI (SK-MEL-28 melanoma) was 35.8 µM. For the same compound, the TGI (U251 CNS) was 32.4 µM, the TGI (CAKI-1 renal) was 92.2 µM and the TGI (SK-MEL-5 melanoma) was 30.4 µM. The TGI (OVCAR-8 ovarian) was 95 µM, the TGI (ACHN renal) was 83.9 µM and the TGI (CCRF-CEM leukemia) was 55.1 µM. The TGI (OVCAR-4 ovarian) was 41.7 µM and the TGI (HS 578T breast) was 30.6 µM.
Compound CSc1ccc(Nc2c([N+](=O)[O-])cc([N+](=O)[O-])cc2[N+](=O)[O-])cc1 has a GI50 (HOP-62 NSCLC) of 3.39 µM, a TGI (HOP-62 NSCLC) of 42.4 µM and a GI50 (HCC-2998 colon) of 4.45 µM. For the same compound, the TGI (HCC-2998 colon) was 16.6 µM, the GI50 (MCF7 breast) was 3.13 µM and the TGI (MCF7 breast) was 13.6 µM. For the same compound, the GI50 (KM12 colon) was 2.98 µM, the TGI (KM12 colon) was 11.9 µM and the GI50 (TK-10 renal) was 5 µM. It also gave a TGI (TK-10 renal) of 32.1 µM, a GI50 (LOX IMVI melanoma) of 3.1 µM and a TGI (LOX IMVI melanoma) of 28.3 µM. The GI50 (COLO 205 colon) was 1.84 µM, the TGI (COLO 205 colon) was 4.53 µM and the GI50 (SK-MEL-2 melanoma) was 14 µM. For the same compound, the TGI (SK-MEL-2 melanoma) was 42.4 µM, the GI50 (SNB-19 CNS) was 5.25 µM and the TGI (SNB-19 CNS) was over 100 µM. It also gave a GI50 (SW-620 colon) of 3.03 µM, a TGI (SW-620 colon) of 12 µM and a GI50 (SF-268 CNS) of 3.45 µM. The TGI (SF-268 CNS) was over 100 µM, the GI50 (MDA-MB-435) was 8.81 µM and the TGI (MDA-MB-435) was 22.2 µM. It also gave a GI50 (RPMI-8226 leukemia) of 2.68 µM, a TGI (RPMI-8226 leukemia) of 7.82 µM and a GI50 (UACC-257 melanoma) of 2.44 µM. It also gave a TGI (UACC-257 melanoma) of 8.37 µM, a GI50 (OVCAR-3 ovarian) of 2.13 µM and a TGI (OVCAR-3 ovarian) of 4.95 µM. The GI50 (M14 melanoma) was 5.89 µM, the TGI (M14 melanoma) was 19.3 µM and the GI50 (NCI-H23 lung) was 2.5 µM. It also gave a TGI (NCI-H23 lung) of 10.7 µM, a GI50 (OVCAR-5 ovarian) of 3.52 µM and a TGI (OVCAR-5 ovarian) of 13.6 µM. The GI50 (MALME-3M melanoma) was 2.73 µM, the TGI (MALME-3M melanoma) was 13.2 µM and the GI50 (A549 NSCLC) was 5.43 µM. For the same compound, the TGI (A549 NSCLC) was 35.7 µM, the GI50 (PC-3 prostate) was 2.81 µM and the TGI (PC-3 prostate) was over 100 µM. The GI50 (HCT-116 colon) was 1.98 µM, the TGI (HCT-116 colon) was 5.03 µM and the GI50 (NCI/ADR-RES ovarian) was 3.04 µM. The TGI (NCI/ADR-RES ovarian) was 15.2 µM, the GI50 (NCI-H460 lung) was 3.16 µM and the TGI (NCI-H460 lung) was 13 µM. For the same compound, the GI50 (A498 renal) was 1.49 µM, the TGI (A498 renal) was 3.73 µM and the GI50 (NCI-H226 lung) was 2.13 µM. The TGI (NCI-H226 lung) was 10.4 µM, the GI50 (UACC-62 melanoma) was 2.66 µM and the TGI (UACC-62 melanoma) was 12.5 µM. The GI50 (K-562 leukemia) was 2.59 µM, the TGI (K-562 leukemia) was 12.2 µM and the GI50 (SNB-75 CNS) was 16.1 µM. For the same compound, the TGI (SNB-75 CNS) was 78.9 µM, the GI50 (SF-295 CNS) was 3.78 µM and the TGI (SF-295 CNS) was 25 µM. For the same compound, the GI50 (786-0 renal) was 3.75 µM, the TGI (786-0 renal) was 14.4 µM and the GI50 (DU-145 prostate) was 5.66 µM. For the same compound, the TGI (DU-145 prostate) was over 100 µM, the GI50 (T-47D breast) was 2.32 µM and the TGI (T-47D breast) was 45.2 µM. The GI50 (HCT-15 colon) was 2.56 µM, the TGI (HCT-15 colon) was 10.2 µM and the GI50 (HT29 colon) was 3.29 µM. The TGI (HT29 colon) was 15.5 µM, the GI50 (SN12C renal) was 4.22 µM and the TGI (SN12C renal) was 80.1 µM. It also gave a GI50 (MDA-MB-231 breast) of 2.31 µM, a TGI (MDA-MB-231 breast) of 8.54 µM and a GI50 (NCI-H322M lung) of 8.63 µM. It also gave a TGI (NCI-H322M lung) of over 100 µM, a GI50 (IGROV1 ovarian) of 3.79 µM and a TGI (IGROV1 ovarian) of over 100 µM. The GI50 (EKVX NSCLC) was 3.94 µM, the TGI (EKVX NSCLC) was 37 µM and the GI50 (HOP-92 NSCLC) was 2.03 µM. The TGI (HOP-92 NSCLC) was 9.82 µM, the GI50 (NCI-H522 lung) was 1.54 µM and the TGI (NCI-H522 lung) was 4.36 µM. For the same compound, the GI50 (SR leukemia) was 2.47 µM, the TGI (SR leukemia) was 6.56 µM and the GI50 (RXF 393 renal) was 2.17 µM. The TGI (RXF 393 renal) was 6.38 µM, the GI50 (UO-31 renal) was 1.77 µM and the TGI (UO-31 renal) was 11.8 µM. The GI50 (SF-539 CNS) was 4.43 µM, the TGI (SF-539 CNS) was over 100 µM and the GI50 (MOLT-4 leukemia) was 2.07 µM. For the same compound, the TGI (MOLT-4 leukemia) was 6.3 µM, the GI50 (SK-MEL-28 melanoma) was 11.6 µM and the TGI (SK-MEL-28 melanoma) was 44.7 µM. The GI50 (U251 CNS) was 2.88 µM, the TGI (U251 CNS) was 12.8 µM and the GI50 (CAKI-1 renal) was 3.77 µM. For the same compound, the TGI (CAKI-1 renal) was over 100 µM, the GI50 (SK-MEL-5 melanoma) was 10.3 µM and the TGI (SK-MEL-5 melanoma) was 21.9 µM. It also gave a GI50 (OVCAR-8 ovarian) of 2.62 µM, a TGI (OVCAR-8 ovarian) of 9.77 µM and a GI50 (ACHN renal) of 2.18 µM. The TGI (ACHN renal) was 5.24 µM, the GI50 (HL-60(TB) leukemia) was 1.62 µM and the TGI (HL-60(TB) leukemia) was 4.25 µM. For the same compound, the GI50 (CCRF-CEM leukemia) was 2.73 µM, the TGI (CCRF-CEM leukemia) was over 100 µM and the GI50 (OVCAR-4 ovarian) was 2.83 µM. It also gave a TGI (OVCAR-4 ovarian) of 10.9 µM, a GI50 (HS 578T breast) of 2.39 µM and a TGI (HS 578T breast) of 14.6 µM.
